The test system of the test is Sodium Channel, Site 2. The experiment in a line: Inhibition of binding of [3H]BTX-B to Wistar rat brain.

Turning to `Nc1nnc(-c2cccc(Cl)c2Cl)c(N)n1` [CEN-1, 3,5-Diamino-6-(2,3-dichlorophenyl)-1,2,4-triazine, reference compound], for the setting “10 μM”, the “[3H]BTX-B binding % inhibition (@ 10 μM)” value is −28%. Moreover, the IC50 (usually the concentration at which inhibition is half-maximal) (read-out: [3H]BTX-B binding Extrapolated IC50) was greater than 200 µM.

Source of the values: patent US9000155B2, “Cyclic triazo sodium channel blockers” (University of Greenwich, priority 2009, dated 2015).
